Amino acid sequences for entries named in this document (tags omitted).
UniProt P01112, whole entry: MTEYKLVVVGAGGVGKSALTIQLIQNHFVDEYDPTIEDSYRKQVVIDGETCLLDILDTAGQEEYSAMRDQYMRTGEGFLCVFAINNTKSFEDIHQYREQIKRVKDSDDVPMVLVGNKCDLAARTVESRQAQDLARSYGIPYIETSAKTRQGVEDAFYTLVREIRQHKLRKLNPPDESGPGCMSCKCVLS

The target of one experiment is HRAS wild-type protein (Homo sapiens, UniProt P01112). Kind of experiment: Binding to HRAS by surface plasmon resonance (SPR), KD and KD ratio to KRAS. Particulars: ratio of KD for HRAS wild-type protein to KD for KRAS.
As for `CCCOC[C@H]1C(=O)N[C@@H]([C@@H](C)OCC)C(=O)N2CCC[C@H]2C(=O)N(C)[C@H]2C/C=C\CCN(C2=O)[C@@H](Cc2ccc(C)cc2)C(=O)N(C)CC(=O)N[C@@H](CCc2ccc(C(F)(F)F)c(OC)c2)C(=O)N2C[C@@H](C)C[C@H]2C(=O)NC2(CC(C)(C)C2)C(=O)N(C)[C@@H](C2CCCC2)C(=O)N(C)[C@H](C(=O)N(C)CC)CC(=O)N1C`, the “HRAS /KRAS” value was “A (a compound having 10 or more and less than 20 is denoted as A)”.

For the compound `CCC[C@H]1C(=O)N[C@@H]([C@@H](C)CC)C(=O)N2C[C@@H](OC)C[C@H]2C(=O)N(C)[C@H]2C/C=C\CCN(C2=O)[C@@H](Cc2ccc(C)cc2)C(=O)N(C)CC(=O)N[C@@H](CCc2ccc(C(F)(F)F)c(OC)c2)C(=O)N2C[C@@H](C)C[C@H]2C(=O)NC2(CC(C)(C)C2)C(=O)N(C)[C@@H](C2CCCC2)C(=O)N(C)[C@H](C(=O)N(C)C)CC(=O)N1C`, the “HRAS /KRAS” value is “B (a compound having 3 or more and less than 10 is denoted as B)”.

The same experiment, now with this note: ratio of KD with respect to HRAS wild-type protein to KD with respect to KRAS.
`CC[C@H](C)[C@@H]1NC(=O)[C@H](CC)N(C)C(=O)C[C@@H](C(=O)N(C)C)N(C)C(=O)[C@H](C2CCCC2)N(C)C(=O)C2(CCCC2)NC(=O)[C@@H]2CCCN2C(=O)[C@H](CCc2ccc(C(F)(F)F)c(Cl)c2)NC(=O)CN(C)C(=O)[C@H](Cc2ccc(C(F)(F)F)cc2)N2C[C@H](C)CC[C@@H](C2=O)N(C)C(=O)CN(C)C1=O`: the “HRAS /KRAS” value was “B (a compound having 3 or more and less than 10 is denoted as B)”.

For `CCC[C@H]1C(=O)N[C@@H]([C@@H](C)CC)C(=O)N(C)CC(=O)N(C)[C@H]2C/C=C\CCN(C2=O)[C@@H](Cc2ccc(C(F)(F)F)cc2)C(=O)N(C)CC(=O)N[C@@H](CCc2ccc(C(F)(F)F)c(OC)c2)C(=O)N2C[C@H](OCC)C[C@H]2C(=O)NC2(CCC2)C(=O)N(C)[C@@H](C2CCCC2)C(=O)N(C)[C@H](C(=O)N(C)C)CC(=O)N1C`, the “HRAS /KRAS” value was “B (a compound having 3 or more and less than 10 is denoted as B)”.

Turning to `CCC[C@H]1C(=O)N[C@@H]([C@@H](C)CC)C(=O)N(C)CC(=O)N(C)[C@H]2C/C=C\CCN(C2=O)[C@@H](Cc2ccc(C(F)(F)F)cc2)C(=O)N(C)CC(=O)N[C@@H](CCc2ccc3sccc3c2)C(=O)N2C[C@H](OCC)C[C@H]2C(=O)NC2(CCC2)C(=O)N(C)[C@@H](C(CC)CC)C(=O)N(C)[C@H](C(=O)N(C)C)CC(=O)N1C`, the “HRAS /KRAS” value was “A (a compound having 10 or more and less than 20 is denoted as A)”.

`CCO[C@@H]1C[C@H]2C(=O)NC3(CCC3)C(=O)N(C)[C@@H](C3CCCC3)C(=O)N(C)[C@H](C(=O)N(C)C)CC(=O)N(C)[C@@H](CC3CC3)C(=O)N[C@@H]([C@@H](C)CC)C(=O)N(C)CC(=O)N(C)[C@H]3C/C=C\CCN(C3=O)[C@@H](Cc3ccc(C(F)(F)F)cc3)C(=O)N(C)CC(=O)N[C@@H](CCc3ccc4sccc4c3)C(=O)N2C1`: the “HRAS /KRAS” value is “A (a compound having 10 or more and less than 20 is denoted as A)”.

As to `CCO[C@@H]1C[C@H]2C(=O)NC3(CCCCC3)C(=O)N(C)[C@@H](C3CCCC3)C(=O)N(C)[C@H](C(=O)N(C)C)CC(=O)N(C)[C@@H](CC)C(=O)N[C@@H]([C@@H](C)CC)C(=O)N(C)CC(=O)N(C)[C@H]3C/C=C\CCN(C3=O)[C@@H](Cc3ccc(C(F)(F)F)cc3)C(=O)N(C)CC(=O)N[C@@H](CCc3cc(F)c(C(F)(F)F)c(F)c3)C(=O)N2C1`, the “HRAS /KRAS” value is “A (a compound having 10 or more and less than 20 is denoted as A)”.

For the compound `CCO[C@@H]1C[C@H]2C(=O)NC3(CCC3)C(=O)N(C)[C@@H](C3CCCC3)C(=O)N(C)[C@H](C(=O)N3CCOCC3)CC(=O)N(C)[C@@H](Cc3cccs3)C(=O)N[C@@H]([C@@H](C)CC)C(=O)N(C)CC(=O)N(C)[C@H]3CCCCCN(C3=O)[C@@H](Cc3ccc(C(F)(F)F)cc3)C(=O)N(C)CC(=O)N[C@@H](CCc3cc(F)c(C(F)(F)F)c(F)c3)C(=O)N2C1`, the “HRAS /KRAS” value was “B (a compound having 3 or more and less than 10 is denoted as B)”.

With `CCCOC[C@H]1C(=O)N[C@@H]([C@@H](C)CC)C(=O)N(C)CC(=O)N(C)[C@H]2C/C=C\CCN(C2=O)[C@@H](Cc2ccc(C)cc2)C(=O)N(C)CC(=O)N[C@@H](CCc2cc(F)c(C(F)(F)F)c(F)c2)C(=O)N2C[C@H](OCC)C[C@H]2C(=O)NC2(CC(C)(C)C2)C(=O)N(C)[C@@H](C2CCCC2)C(=O)N(C)[C@H](C(=O)N(C)C)CC(=O)N1C`, the “HRAS /KRAS” value is “B (a compound having 3 or more and less than 10 is denoted as B)”.

`CCO[C@@H]1C[C@H]2C(=O)NC(C)(C)C(=O)N(C)[C@@H](C3CCCC3)C(=O)N(C)[C@H](C(=O)N(C)C)CC(=O)N(C)[C@@H](CC)C(=O)N[C@@H]([C@@H](C)CC)C(=O)N(C)CC(=O)N(C)[C@H]3C/C=C\CCN(C3=O)[C@@H](Cc3ccc(C(F)(F)F)cc3)C(=O)N(C)CC(=O)N[C@@H](CCc3cc(F)c(C(F)(F)F)c(F)c3)C(=O)N2C1`: the “HRAS /KRAS” value was “A (a compound having 10 or more and less than 20 is denoted as A)”.

Regarding `CCOC1CC2C(=O)NC3(CCC3)C(=O)N(C)C(C3CCCC3)C(=O)N(C)C(C(=O)N3CCOCC3)CC(=O)N(C)C(Cc3ccccc3)C(=O)NC(C(C)CC)C(=O)N(C)CC(=O)N(C)C3CCCCCN(C3=O)C(Cc3ccc(F)cc3)C(=O)N(C)CC(=O)NC(CCc3cc(F)c(C(F)(F)F)c(F)c3)C(=O)N2C1` (stereo not drawn), the “HRAS /KRAS” value was “B (a compound having 3 or more and less than 10 is denoted as B)”.

For the compound `CCO[C@@H]1C[C@H]2C(=O)NC3(CCCC3)C(=O)N(C)[C@@H](C(CC)CC)C(=O)N(C)[C@H](C(=O)N3CCCC3)CC(=O)N(C)[C@@H](C)C(=O)N[C@@H]([C@@H](C)CC)C(=O)N(C)CC(=O)N(C)[C@H]3C/C=C\CCN(C3=O)[C@@H](CC3CCC(F)(F)CC3)C(=O)N(C)CC(=O)N[C@@H](CCc3cc(F)c(C(F)(F)F)c(F)c3)C(=O)N2C1`, the “HRAS /KRAS” value is “A (a compound having 10 or more and less than 20 is denoted as A)”.

Consider `CCO[C@@H]1C[C@H]2C(=O)NC3(CCC3)C(=O)N(C)[C@@H](C3CCCC3)C(=O)N(C)[C@H](C(=O)N3CCOCC3)CC(=O)N(C)[C@@H](C)C(=O)N[C@@H]([C@@H](C)CC)C(=O)N(C)CC(=O)N(C)[C@H]3C/C=C\CCN(C3=O)[C@@H](Cc3ccc(C(F)(F)F)cc3)C(=O)N(C)CC(=O)N[C@@H](CCc3cc(F)c(C(F)(F)F)c(F)c3)C(=O)N2C1`, for which the “HRAS /KRAS” value is “A (a compound having 10 or more and less than 20 is denoted as A)”.

As to `CCO[C@@H]1C[C@H]2C(=O)NC3(CC(C)(C)C3)C(=O)N(C)[C@@H](C3CCCC3)C(=O)N(C)[C@H](C(=O)N(C)C)CC(=O)N(C)[C@@H](CC)C(=O)N[C@@H]([C@@H](C)CC)C(=O)N(C)CC(=O)N(C)[C@H]3C/C=C\CCN(C3=O)[C@@H](Cc3ccc(C(F)(F)F)cc3)C(=O)N(C)CC(=O)N[C@@H](CCc3cc(F)c(C(F)(F)F)c(F)c3)C(=O)N2C1`, the “HRAS /KRAS” value is “A (a compound having 10 or more and less than 20 is denoted as A)”.

In the case of `CCO[C@@H]1C[C@H]2C(=O)NC3(CCC3)C(=O)N(C)[C@@H](C3CCCC3)C(=O)N(C)[C@H](C(=O)N(C)C)CC(=O)N(C)[C@@H](CC3CCCC3)C(=O)N[C@@H]([C@@H](C)CC)C(=O)N(C)CC(=O)N(C)[C@H]3C/C=C\CCN(C3=O)[C@@H](Cc3ccc(C(F)(F)F)cc3)C(=O)N(C)CC(=O)N[C@@H](CCc3cc(F)c(Cl)c(F)c3)C(=O)N2C1`, the “HRAS /KRAS” value was “B (a compound having 3 or more and less than 10 is denoted as B)”.

For the compound `CCO[C@@H]1C[C@H]2C(=O)NC3(CCC3)C(=O)N(C)[C@@H](C3CCCC3)C(=O)N(C)[C@H](C(=O)N3CCOCC3)CC(=O)N(C)[C@@H](CC)C(=O)N[C@@H]([C@@H](C)CC)C(=O)N(C)CC(=O)N(C)[C@H]3CCCCCN(C3=O)[C@@H](Cc3ccc(F)cc3)C(=O)N(C)CC(=O)N[C@@H](CCc3cc(F)c(C(F)(F)F)c(F)c3)C(=O)N2C1`, the “HRAS /KRAS” value is “B (a compound having 3 or more and less than 10 is denoted as B)”.

As to `CCC(C)C1NC(=O)C(CC)N(C)C(=O)CC(C(=O)N(C)C)N(C)C(=O)C(C2CCCC2)N(C)C(=O)C2(CCC2)NC(=O)C(CC2CCCCC2)N(C)C(=O)C(CCc2cc(F)c(C(F)(F)F)c(F)c2)NC(=O)CN(C)C(=O)C(Cc2ccc(C(F)(F)F)cc2)N2CCC=CCC(C2=O)N(C)C(=O)CN(C)C1=O` (stereo not drawn), the “HRAS /KRAS” value is “A (a compound having 10 or more and less than 20 is denoted as A)”.

In the case of `CCO[C@@H]1C[C@H]2C(=O)NC3(CCC3)C(=O)N(C)[C@@H](C3CCCC3)C(=O)N(C)[C@H](C(=O)N3CCCC3)CC(=O)N(C)[C@@H](C)C(=O)N[C@@H]([C@@H](C)CC)C(=O)N(C)CC(=O)N(C)[C@H]3C/C=C\CCN(C3=O)[C@@H](Cc3ccc(C(F)(F)F)cc3)C(=O)N(C)CC(=O)N[C@@H](CCc3cc(F)c(C(F)(F)F)c(F)c3)C(=O)N2C1`, the “HRAS /KRAS” value is “A (a compound having 10 or more and less than 20 is denoted as A)”.

With `CCO[C@@H]1C[C@H]2C(=O)NC3(CCC3)C(=O)N(C)[C@@H](C3CCCC3)C(=O)N(C)[C@H](C(=O)N(C)C)CC(=O)N(C)[C@@H](CC3CCC3)C(=O)N[C@@H]([C@@H](C)CC)C(=O)N(C)CC(=O)N(C)[C@H]3C/C=C\CCN(C3=O)[C@@H](CC3CCC(F)(F)CC3)C(=O)N(C)CC(=O)N[C@@H](CCc3cc(F)c(C(F)(F)F)c(F)c3)C(=O)N2C1`, the “HRAS /KRAS” value is “A (a compound having 10 or more and less than 20 is denoted as A)”.

Regarding `CCO[C@@H]1C[C@H]2C(=O)NC3(CCC3)C(=O)N(C)[C@@H](C(CC)CC)C(=O)N(C)[C@H](C(=O)N(C)C)CC(=O)N(C)[C@@H](CC(C)C)C(=O)N[C@@H]([C@@H](C)CC)C(=O)N(C)CC(=O)N(C)[C@H]3C/C=C\CCN(C3=O)[C@@H](Cc3ccc(C(F)(F)F)cc3)C(=O)N(C)CC(=O)N[C@@H](CCc3ccc(C(F)(F)F)c(OC)c3)C(=O)N2C1`, the “HRAS /KRAS” value was “A (a compound having 10 or more and less than 20 is denoted as A)”.

As for `CCO[C@@H]1C[C@H]2C(=O)NC3(CCC3)C(=O)N(C)[C@@H](C3CCCC3)C(=O)N(C)[C@H](C(=O)N(C)C)CC(=O)N(C)[C@@H](CC3CC3)C(=O)N[C@@H]([C@@H](C)CC)C(=O)NCC(=O)N(C)[C@H]3C/C=C\CCN(C3=O)[C@@H](Cc3ccc(C(F)(F)F)cc3)C(=O)N(C)CC(=O)N[C@@H](CCc3cc(F)c(C(F)(F)F)c(F)c3)C(=O)N2C1`, the “HRAS /KRAS” value is “B (a compound having 3 or more and less than 10 is denoted as B)”.

Values taken from patent EP4603105A1, “PHARMACEUTICAL COMPOSITION CONTAINING CYCLIC COMPOUND HAVING SELECTIVE KRAS INHIBITORY EFFECT AGAINST HRAS AND NRAS” (CHUGAI SEIYAKU KABUSHIKI KAISHA, priority 2022, dated 2024).
